Data taken from publication PMC7533260, “Design and tests of prospective property predictions for novel antimalarial 2-aminopropylaminoquinolones” (Journal of Computer-Aided Molecular Design, 2020).
pKi: −log10 of the molar value.

Target: T1, s-PfDHODH (Plasmodium falciparum, UniProt Q08210)
T1 sequence (Q08210 158-569 limits assumed): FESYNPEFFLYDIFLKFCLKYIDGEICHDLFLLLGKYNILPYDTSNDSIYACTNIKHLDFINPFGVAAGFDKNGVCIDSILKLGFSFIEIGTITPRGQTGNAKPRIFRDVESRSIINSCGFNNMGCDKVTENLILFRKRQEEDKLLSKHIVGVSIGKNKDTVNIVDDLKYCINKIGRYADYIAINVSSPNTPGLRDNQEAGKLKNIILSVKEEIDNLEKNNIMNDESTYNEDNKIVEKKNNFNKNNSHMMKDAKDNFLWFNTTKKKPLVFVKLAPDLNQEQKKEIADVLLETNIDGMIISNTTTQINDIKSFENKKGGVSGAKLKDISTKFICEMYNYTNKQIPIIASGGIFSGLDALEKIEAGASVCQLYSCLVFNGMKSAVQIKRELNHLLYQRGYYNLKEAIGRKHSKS
Assay: Literature inhibition data for soluble recombinant PfDHODH (s-PfDHODH), dodecylubiquinone as substrate
Assay type: biochemical

Cc1cc(Nc2ccc3ccccc3c2)n2ncnc2n1 [Tz07]
pKi: 7.70
